Measurements as given in article PMC5717261.

B1: Recombinant human mannose-binding lectin (MBL) [human] / Recombinant human mammalian tolloid-like-1 (mTLL-1) with a C-terminal 6x-His tag [human] (parent)
chain 1: ETVTCEDAQKTCPAVIACSSPGINGFPGKDGRDGTKGEKGEPGQGLRGLQGPPGKLGPPGNPGPSGSPGPKGQKGDPGKSPDGDSSLAASERKALQTEMARIKKWLTFSLGKQVGNKFFLTNGEIMTFEKVKALCVKFQASVATPRNAAENGAIQNLIKEEAFLGITDEKTEGQFVDLTGNRLTYTNWNEGEPNNAGSDEDCVLLLKNGQWNDVPCSTSHLAVCEFPI
chain 2: AATSRTERIWPGGVIPYVIGGNFTGSQRAMFKQAMRHWEKHTCVTFIERSDEESYIVFTYRPCGCCSYVGRRGNGPQAISIGKNCDKFGIVVHELGHVIGFWHEHTRPDRDNHVTIIRENIQPGQEYNFLKMEPGEVNSLGERYDFDSIMHYARNTFSRGMFLDTILPSRDDNGIRPAIGQRTRLSKGDIAQARKLYRCPACGETLQESNGNLSSPGFPNGYPSYTHCIWRVSVTPGEKIVLNFTTMDLYKSSLCWYDYIEVRDGYWRKSPLLGRFCGDKLPEVLTSTDSRMWIEFRSSSNWVGKGFAAVYEAICGGEIRKNEGQIQSPNYPDDYRPMKECVWKITVSESYHVGLTFQSFEIERHDNCAYDYLEVRDGTSENSPLIGRFCGYDKPEDIRSTSNTLWMKFVSDGTVNKAGFAANFFKEEDECAKPDRGGCEQRCLNTLGSYQCACEPGYELGPDRRSCEAACGGLLTKLNGTITTPGWPKEYPPNKNCVWQVVAPTQYRISVKFEFFELEGNEVCKYDYVEIWSGLSSESKLHGKFCGAEVPEVITSQFNNMRIEFKSDNTVSKKGFKAHFFSDKDECSKDNGGCQHECVNTMGSYMCQCRNGFVLHDNKHDCKEAECEQKIHSPSGLITSPNWPDKYPSRKECTWEISATPGHRIKLAFSEFEIEQHQECAYDHLEVFDGETEKSPILGRLCGNKIPDPLVATGNKMFVRFVSDASVQRKGFQATHSTECGGRLKAESKPRDLYSHAQFGDNNYPGQVDCEWLLVSERGSRLELSFQTFEVEEEADCGYDYVELFDGLDSTAVGLGRFCGSGPPEEIYSIGDSVLIHFHTDDTINKKGFHIRYKSIRYPDTTHTKK
B2: Recombinant human mannose-binding lectin (MBL) [human] / Recombinant human bone morphogenetic protein-1 (BMP-1) with a C-terminal FLAG tag [human] (parent)
chain 1: B1 chain 1
chain 2: AATSRPERVWPDGVIPFVIGGNFTGSQRAVFRQAMRHWEKHTCVTFLERTDEDSYIVFTYRPCGCCSYVGRRGGGPQAISIGKNCDKFGIVVHELGHVVGFWHEHTRPDRDRHVSIVRENIQPGQEYNFLKMEPQEVESLGETYDFDSIMHYARNTFSRGIFLDTIVPKYEVNGVKPPIGQRTRLSKGDIAQARKLYKCPACGETLQDSTGNFSSPEYPNGYSAHMHCVWRISVTPGEKIILNFTSLDLYRSRLCWYDYVEVRDGFWRKAPLRGRFCGSKLPEPIVSTDSRLWVEFRSSSNWVGKGFFAVYEAICGGDVKKDYGHIQSPNYPDDYRPSKVCIWRIQVSEGFHVGLTFQSFEIERHDSCAYDYLEVRDGHSESSTLIGRYCGYEKPDDIKSTSSRLWLKFVSDGSINKAGFAVNFFKEVDECSRPNRGGCEQRCLNTLGSYKCSCDPGYELAPDKRRCEAACGGFLTKLNGSITSPGWPKEYPPNKNCIWQLVAPTQYRISLQFDFFETEGNDVCKYDFVEVRSGLTADSKLHGKFCGSEKPEVITSQYNNMRVEFKSDNTVSKKGFKAHFFSEKRPALQPPRGRPHQLKFRVQKRNRTPQ

Variants of: B1
Assay: SPR
Conditions: with Recombinant human mammalian tolloid-like-1 (mTLL-1) with a C-terminal 6x-His tag [human]; 16 nM MBL injected over immobilized mTLL-1 (310 RU); 50 mM triethanolamine-HCl, 145 mM NaCl, 2 mM CaCl2, 0.005% surfactant P20, pH 7.4; read off a plot

response | Variant
13 RU | chain 1 K55E
22 RU | chain 1 K55A

Variants of: B2
Assay: SPR
Conditions: with Recombinant human bone morphogenetic protein-1 (BMP-1) with a C-terminal FLAG tag [human]; 16 nM MBL injected over immobilized BMP-1 (2,300 RU); 50 mM triethanolamine-HCl, 145 mM NaCl, 2 mM CaCl2, 0.005% surfactant P20, pH 7.4; read off a plot

response | Variant
20 RU | chain 1 K55E
25 RU | chain 1 K55A
